Test results: paper PMC3727052 (Bioorganic & medicinal chemistry, 2012)

Experiments:
[1] = system: Vero; conditions: African green monkey
[2] = system: HEL; conditions: human
[3] = system: HeLa; conditions: human
[4] = system: MDCK; conditions: dog

For NC(=O)c1ncn([C@@H]2O[C@H](CO)[C@@H](O)[C@H]2O)n1 [Ribavirin, reference compound], the “MCC (minimal cytotoxic concentration) Vero” value [1] was greater than 250 µM, the “MCC (minimal cytotoxic concentration) HEL” value [2] was greater than 250 µM and the “MCC (minimal cytotoxic concentration) HeLa” value [3] was greater than 250 µM. For the same compound, the “MCC (minimal cytotoxic concentration) MDCK” value [4] was 20 µM.
